Results published in ChEMBL document CHEMBL5584250, “5-HT6 receptor neutral antagonists protect astrocytes: A lesson from 2-phenylpyrrole derivatives” (Eur J Med Chem, 2024).

Amino acid sequences for entries named in this document (tags omitted).
UniProt P50406, whole entry: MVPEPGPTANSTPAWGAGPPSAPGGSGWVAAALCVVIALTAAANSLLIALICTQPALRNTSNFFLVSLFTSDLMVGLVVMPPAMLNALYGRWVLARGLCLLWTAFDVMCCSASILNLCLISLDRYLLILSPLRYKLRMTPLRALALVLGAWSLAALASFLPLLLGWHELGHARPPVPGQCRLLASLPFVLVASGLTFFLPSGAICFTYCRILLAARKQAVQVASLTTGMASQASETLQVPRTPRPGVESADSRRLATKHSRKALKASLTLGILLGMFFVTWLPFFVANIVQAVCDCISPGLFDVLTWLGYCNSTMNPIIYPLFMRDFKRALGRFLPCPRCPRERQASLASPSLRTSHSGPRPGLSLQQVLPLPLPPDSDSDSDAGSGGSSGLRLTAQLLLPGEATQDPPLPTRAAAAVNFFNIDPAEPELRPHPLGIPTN

Biological target: 5-hydroxytryptamine receptor 6 (Homo sapiens, UniProt P50406)

SMILES: O=C(NC1CCNCC1)c1ccn(S(=O)(=O)c2cccc(Cl)c2)c1-c1cccc(F)c1
- Ki: 12.6 nM
